Laboratory results from patent US20060258748A1 (Chevron U.S.A. Inc., priority 2005, published 2006).
Structures can show the parent of a compound that is named as a salt.

Molecular target: NMDA receptor
Assay: [3H]MK-801 binding assay, NMDA receptors in guinea pig brain membranes
Conditions: [3H]MK-801 1 nM, read-out: Ki at the NMDA site (standard compounds)
Method: Hartley guinea pigs were sacrificed, and their brains were quickly removed and weighed. The brains then were homogenized in 50 mM Tris HCl buffer, pH 7.7, using a Polytron homogenizer. The homogenate was centrifuged at 40,000×g for 15 min, rehomogenized, and centrifuged again. The final pellet was resuspended in Tris-HCl, pH 7.7, at a final concentration of 6.67 mg original wet weight of tissue/ml. […] The samples were then filtered through glass fiber filters on a Tomtec cell harvester. The filters were washed 3 times with 3 ml of cold buffer. Filters were dried overnight and counted next day on a Wallac Betaplate Reader.
The binding experiments were conducted as follows. […] For each compound, graphs were prepared containing individual competition curves obtained for that compound. IC50 values and Hill coefficients were calculated using the program Prism. Ki values were calculated using the Chang Prusoff transformation: Ki═IC50/(1+L/Kd)
where L is radioligand concentration and Kd is the binding affinity of the radioligand, as determined previously by saturation analysis. […] In each experiment, one standard compound was simultaneously run on each 96 well plate.

`NC12CC3CC(CC(C3)C1)C2` [Amantadine, 1-aminoadamantane hydrochloride, reference compound] was tested, and the Ki was 16.1 nM.
